## AlphaSeq binding of Ab-14 light chain variants to a spike HR2 peptide

Target peptide (SARS-CoV-2 spike, HR2 region): PDVDLGDISGINAS

Parent scFv Ab-14: VH joined to VL by a (GGGGS)3 linker. Changes lie in the light chain CDRs alone.
VH: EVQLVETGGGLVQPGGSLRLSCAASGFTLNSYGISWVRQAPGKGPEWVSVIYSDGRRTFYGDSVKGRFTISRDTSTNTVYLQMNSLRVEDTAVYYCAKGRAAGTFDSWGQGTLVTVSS
VL: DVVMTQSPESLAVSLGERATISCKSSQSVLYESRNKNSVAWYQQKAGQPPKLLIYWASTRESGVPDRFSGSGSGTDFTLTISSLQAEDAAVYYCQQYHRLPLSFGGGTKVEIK

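Phage display of a naive human antibody library on the peptide gave the parent. This is the validation round: designs drawn from the data on random variants, tested in the same kind of assay. Their group label is 14L_En_HC (En: ensemble of fine-tuned language models; HC: hill climbing; a sequence that several methods proposed may carry one label only). AlphaSeq pools MATa yeast showing the antibodies with MATalpha yeast showing the peptide. Mating (16 h, 30 °C) was followed by selection of diploids and sequencing of their barcodes. A regression on co-assayed BCL2-family reference pairs converts the normalised counts of each replicate to an apparent Kd. The assay was run in six technical replicates.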

Variants are written as CDR1, CDR2 and CDR3 of the light chain (limits as in the source). Parent: KSSQSVLYESRNKNSVA, WASTRES, QQYHRLPLS.
Numbers give log10(Kd / nM), so 0 is 1 nM and 3 is 1 µM. Smaller is tighter.
A pair that was not seen in that replicate is written "ND"; this usually means weak binding, but a binder can also be missed.
Of ten entries with the parent sequence, four were seen in most replicates (averages 0.34 to 2.37), three in one and three in none, so single entries are noisy.
As a blank, each scFv also met three strains without target: over all light chain designs, 4% of these pairings were detected, typically at 2.64 and seldom below 1.59. Also given: how often the same scFv was detected with the empty control strains.
Values of this round are not directly comparable with the first-round values of the same sequences.
In the paper, a design with two or fewer of six values counts as a poor binder.

The variant TIAQSMLYLSNLKNSIA | QAETRES | QQYHRLPIM showed 1.01, 0.57, ND, 1.32, 0.08, 0.36 (controls 0 of 18).
The variant MIAAGLRGVGRNKNSVA | NAQTREA | QHYHRLPLS showed 2.18, 0.66, 1.36, 1.38, 1.36, 1.43 (controls 1 of 18).
The variant NISQMIFMETKNHNNVA | QTSTREE | QDYHRLPLS showed 0.44, 1.42, 0.12, -0.11, 0.48, 0.85 (controls 0 of 18).
The variant KISQFYRMESRNKNSVA | DNSTRES | QDYDRLPLS showed 1.68, 2.62, ND, ND, 3.68, ND (controls 2 of 18).
The variant KLSIMYQHTSRNKNNIA | ERSTREM | QQYHHLPLS showed 0.47, 0.55, 0.28, 0.05, -0.03, 0.96 (controls 0 of 18).
The variant HISEMIFAQMKMRNSVA | ENSTREA | QQYDRLPLS showed ND, ND, ND, ND, ND, ND (controls 0 of 18).
The variant MIAQGLRGQGRNKNSVA | NAQTRES | QHYHRLPLS showed 1.59, 1.63, 1.57, 1.17, 1.05, 1.10 (controls 0 of 18).
The variant HISQMVMYGSCNKNNVA | QVTLREE | QQYHRLPLS showed 0.64, 0.66, 0.62, 0.61, 0.96, 0.66 (controls 2 of 18).
The variant KITQAVNYLSRVMNSVA | DNSTRES | QQYFRLPLS showed 0.47, 0.54, 0.24, 1.10, -0.40, 0.24 (controls 0 of 18).
The variant ILYESAGTLSRNKNSVA | DNSTRES | QQYDRLPLS showed ND, 4.93, ND, ND, 3.86, ND (controls 0 of 18).
The variant MFSQLTMYGSRNYNSVA | QASTRES | QQYHRLPLI showed 0.51, 0.44, 0.20, 0.33, 0.51, 0.43 (controls 0 of 18).
The variant MFSQLVMTGSRTRNAVA | QASTREN | QQYHRLPLS showed 1.34, 1.33, 3.13, 2.01, 1.08, 1.35 (controls 0 of 18).
The variant TISMSMNWLTRNKNNIA | EESTRED | QQYDRLPLS showed 0.05, 1.92, 0.24, 1.21, 2.11, ND (controls 0 of 18).
The variant KISQMFNVGTKNTNSLA | EMNTRGS | QDYHRLPLS showed 0.59, 0.37, 0.41, 0.24, 0.17, 0.43 (controls 1 of 18).
The variant KLLQVTEYESFNKNSVA | QTSTRES | QDYDRLPLS showed ND, 2.21, ND, ND, ND, 2.47 (controls 2 of 18).
The variant KLSILHQVESINKSNVA | EMVTRES | QQYDRLPLS showed 1.76, 3.02, ND, 2.45, 1.47, ND (controls 0 of 18).
The variant MVGQGLMGESRAKNSIA | QASLREE | QQYHRLPLI showed 0.67, 0.50, 0.61, 0.83, 0.49, 0.65 (controls 0 of 18).
The variant MFSQLTYTGSRARNAVA | QASLREN | QQYHHLPLI showed 0.31, 1.26, 1.30, 1.28, 0.99, 2.31 (controls 0 of 18).
The variant TISQSVLMTGLNRNSVA | QAETRIE | QQYHRLPLS showed 0.86, 1.81, 1.87, 1.27, 1.32, 1.29 (controls 2 of 18).
The variant IISGSMLMESRHKNSVA | NAETREY | QHYDRLPLS showed 0.74, 0.56, 0.63, 0.33, 0.50, 0.38 (controls 1 of 18).
The variant KVSEMMAFLSSNRNSVA | DNSTRGS | QQYHRLPLS showed 1.51, 0.98, 0.87, 1.21, 0.88, 1.12 (controls 0 of 18).
The variant TIGQMFLGESRNRNSVA | QASTRES | QSYDRLPLS showed 1.03, 0.55, 0.82, 0.99, 0.97, 0.72 (controls 0 of 18).
The variant KLSMQYRFETEEKNSIA | ELVTRMS | QQYHRLPLS showed ND, 2.53, 1.05, 1.55, 1.97, 1.84 (controls 0 of 18).
The variant TISQSVNMTSRGKNSVA | QAEMREE | QQYDRLPLS showed 1.11, 1.35, 1.11, 1.02, 1.31, 1.44 (controls 0 of 18).
The variant KLPQATMQESVSKNSVA | ELTTRGS | QQYHRLPLS showed 0.87, 0.94, 0.38, 0.48, 0.58, 0.91 (controls 0 of 18).
The variant MISDLTYLGLRNVNSVA | DLTMRGN | QQYDRLPLS showed 0.82, 1.35, 1.28, 0.71, 1.01, 1.16 (controls 0 of 18).
The variant KISQLVNFEGKNKNSVA | QMSTREA | QQYDRLPLS showed 0.40, 0.56, 0.22, 0.30, 0.34, 0.41 (controls 3 of 18).
The variant KLGSMVLLEYGNKNSIA | QMSTREE | QQYDRLPLS showed ND, 1.17, ND, 1.33, 1.91, 1.27 (controls 0 of 18).
The variant KISSLTAYESVNKNSVA | EMSTRPS | QSYHRLPLS showed 0.99, 0.77, 0.70, 0.21, 0.50, 0.45 (controls 0 of 18).
The variant ALSQMMDMTSRNKNSVA | DLSTREN | QQYHRLPLS showed 0.03, -0.08, 0.24, -0.33, -0.06, 0.26 (controls 0 of 18).
The variant KIGMVTNGISFSKNSVA | EQSTREN | QQYDRLPLS showed 1.56, 1.57, 1.32, 1.48, 1.85, 1.64 (controls 2 of 18).
The variant KLTQSVNYLSRVMNSVA | DNSTRES | QQYFRLPLS showed 0.54, 0.27, 0.21, 0.18, 0.42, 0.13 (controls 1 of 18).
The variant ALSQSTDMTSRNVNSVA | DLTTREN | QQYHRLPLS showed 0.38, 0.20, 0.42, 0.35, 0.26, 0.27 (controls 2 of 18).
The variant NLSISMLHESINKHSVA | EVRTREK | QQYDRLPLS showed 1.07, 1.54, 0.83, 0.84, 0.91, 1.40 (controls 0 of 18).
The variant KISNMVDYMSATHSSVA | QTSTREE | QQYHRLPLS showed -0.02, -0.26, -0.07, -0.79, -0.29, -0.13 (controls 0 of 18).
The variant KISMSITFESRNKNNVA | ENSTRES | QSYHRLPLS showed ND, 2.05, ND, ND, ND, ND (controls 1 of 18).
The variant KLSMTYRYESQEKNSIA | EMSTREE | QSYHRLPLS showed ND, 1.87, ND, 1.89, ND, 1.32 (controls 0 of 18).
The variant KISQMYRYEQQNSSSIA | EANTREQ | QSYHRLPLS showed 1.03, 0.95, 1.01, 1.44, 1.59, 0.63 (controls 0 of 18).
The variant KISQATNYLSRVMNSVA | DNSTRES | QQYFRLPLS showed -0.34, -0.21, -0.30, -0.39, -0.16, -0.24 (controls 1 of 18).
The variant MFSQLFMMGSRNYNSVA | QASTRES | QQYHRLPLI showed 2.08, ND, ND, ND, 2.10, ND (controls 0 of 18).
The variant HISQMWMLESYKKNNVA | EESTRED | QSYFRLPLS showed 1.93, 0.85, 1.17, 1.21, 1.04, 0.84 (controls 1 of 18).
The variant KISQMFNVGTKNTNSLA | EMNTRGT | QDYHRLPLS showed 0.97, 1.52, 0.66, 2.21, 0.93, 1.86 (controls 0 of 18).
The variant KLSMSYRYESENKNSIA | ELVTRMS | QQYNRLPLS showed 1.51, ND, 0.98, 1.41, 0.90, 1.54 (controls 0 of 18).
The variant QLGAVQDTTSKNKNSVA | EQSTREN | QQYHRLPLS showed 0.40, 0.50, 0.38, 0.40, 0.42, 0.43 (controls 0 of 18).
The variant TIGQVMNWESRNTNSVA | QTSEREE | QDYDRLPLS showed 1.83, 1.56, ND, 2.03, 1.25, ND (controls 0 of 18).
The variant TISQVHEMLSHNKNSVA | DMNTRES | QQYDRLPLS showed 1.48, 1.04, 0.90, 1.01, 0.40, 0.73 (controls 1 of 18).
The variant TISQSFQMENQFKNSVA | QASTRES | QCYDRLPLS showed 1.14, 1.29, 0.96, 0.77, 1.30, 1.50 (controls 0 of 18).
The variant MISDLMLKGSRNKNPIA | NASTREY | QQYHRLPLE showed 1.51, 1.64, 1.47, 1.32, 1.56, 2.02 (controls 4 of 18).
The variant KISQTFNVGQKNKNSLA | EMSTRGF | QDYHRLPLS showed 1.43, 0.93, 1.18, 0.93, 1.44, 1.34 (controls 0 of 18).

A selection of 6 entries from above:

For TISQSFQMENQFKNSVA | QASTRES | QCYDRLPLS, the assay gave 1.14, 1.29, 0.96, 0.77, 1.30, 1.50 (controls 0 of 18).
For KISQMYRYEQQNSSSIA | EANTREQ | QSYHRLPLS, the assay gave 1.03, 0.95, 1.01, 1.44, 1.59, 0.63 (controls 0 of 18).
For KLSIMYQHTSRNKNNIA | ERSTREM | QQYHHLPLS, the assay gave 0.47, 0.55, 0.28, 0.05, -0.03, 0.96 (controls 0 of 18).
For TIAQSMLYLSNLKNSIA | QAETRES | QQYHRLPIM, the assay gave 1.01, 0.57, ND, 1.32, 0.08, 0.36 (controls 0 of 18).
For MFSQLTYTGSRARNAVA | QASLREN | QQYHHLPLI, the assay gave 0.31, 1.26, 1.30, 1.28, 0.99, 2.31 (controls 0 of 18).
For HISEMIFAQMKMRNSVA | ENSTREA | QQYDRLPLS, the assay gave ND, ND, ND, ND, ND, ND (controls 0 of 18).

From the AlphaSeq antibody data of Li et al. 2023 (doi:10.1038/s41467-023-39022-2), copy in the FLAb collection.